Target: human PAC1 receptor with 3 hemagglutinin (HA) tags, expressed in Chinese Hamster Ovary (CHO) cells (human), P41586
Experiment: cell-based or functional assay

The chains behind the UniProt entries cited, without tags or fusion partners. A line that says so, or that is headed by a name, gives the form on record, which may keep a tag or linker. Residues count along the entry.
human PAC1 receptor with 3 hemagglutinin (HA) tags, expressed in Chinese Hamster Ovary (CHO) cells (human), P41586, UniProt P41586, 21-468: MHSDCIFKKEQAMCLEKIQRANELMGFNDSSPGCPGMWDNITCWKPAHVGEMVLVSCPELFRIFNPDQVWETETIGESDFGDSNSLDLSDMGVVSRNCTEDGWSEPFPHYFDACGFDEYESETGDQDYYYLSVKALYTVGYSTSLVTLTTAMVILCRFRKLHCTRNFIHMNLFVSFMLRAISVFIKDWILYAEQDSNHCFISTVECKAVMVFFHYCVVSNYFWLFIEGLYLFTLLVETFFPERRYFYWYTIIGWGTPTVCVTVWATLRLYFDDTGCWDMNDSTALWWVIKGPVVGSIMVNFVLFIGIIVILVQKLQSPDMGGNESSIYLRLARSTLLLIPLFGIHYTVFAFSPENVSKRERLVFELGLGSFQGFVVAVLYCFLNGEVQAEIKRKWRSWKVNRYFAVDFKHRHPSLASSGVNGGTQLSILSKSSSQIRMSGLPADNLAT

B1: PACAP1-27-S-G (peptide)
peptide: HSDGIFTDSYSRYRKQMAVKKYLAAVS
modifications: here or on the partner: Ser 27 O-β-D-Glc (replaces Leucine 27); C-terminal amide
EC50 (nM), calcium flux (FLIPR), agonist mode, PAC1-CHO cells: 5.68 nM
EMax (%), calcium flux (FLIPR), agonist mode, PAC1-CHO cells: 102%

— patent publication US20200270318A1
